These results are taken from PMC6921279 (Frontiers in Endocrinology, 2019).

This assay relates to CRF1R-mediated ERK1/2 phosphorylation. As to the kind of experiment: Modulation of CRF-stimulated ERK1/2 phosphorylation in COS-7 cells expressing HA-CRF1R. It counts as cell-based. Conditions: β-arrestin-2 co-expression; 100 nM CRF. The text has this:
The HA-epitope tagging human CRF1R (HA-CRF1R), the HA-CRF1R-Δ386 mutant, and the β-arrestin-2 constructs were previously described ([22]–[24]). Plasmid pRK5 encoding the carboxyl terminus of βARK that contains its βγ-binding domain (ct-βARK) was kindly provided by Dr. W. Koch (Center for Translational Medicine, Temple University, Philadelphia, PA), which is a scavenger for G protein βγ subunits ([25]). […] Plasmid pUSEamp encoding dominant-negative Akt-K179M (dn-Akt) was from Upstate Biotechnology (Lake Placid, NY).
COS-7 cells (from the American Type Culture Collection) were cultured at 37°C in a humidified atmosphere of 95% air, 5% CO2, in DMEM supplemented with 10% FBS, 100 μg/ml streptomycin, and 100 units/ml penicillin (COS-7 growth medium). […]
The protocols for measuring total and phosphorylated ERK1/2, c-Src, PYK2, Akt, and EGFR have been previously published ([28], [29]). […] The labeled bands were quantified using the Quantity One 4.6.3 software program (Bio-Rad).
Figure 2 CRF-induced ERK1/2 phosphorylation is dependent on Gi protein. […] Total cell lysates were separated by SDS-PAGE and analyzed by immunoblotting with anti-p-ERK1/2 Thr^202/Tyr^204, as described in Materials and Methods. ERK1/2 phosphorylation was quantitated by densitometry, and mean values were plotted from five independent experiments. […]

Take “β-arrestin-2: full-length β-arrestin-2 expression construct”: the “effect on CRF-mediated ERK1/2 phosphorylation” value is “significant increase in the CRF-mediated ERK1/2 phosphorylation”.
